One compound from patent US10981899B2, “Inhibitors of soluble adenylyl cyclase” (CORNELL UNIVERSITY, priority 2016, dated 2021) can be followed below.

The experiment has as its system mouse sperm. In words: Sperm capacitation, hyperactivation and in vitro fertilization assays.

With `CC(Sc1nc2ccccc2[nH]1)C(=O)N/N=C/c1cc(Br)ccc1O` (stereo not shown) [KH7], the “effect on sAC-dependent functions in sperm” value is reported as “blocked”.
